By UniProt entry, the sequences of proteins in these tests, tags left out.
Protein disulfide-isomerase (Homo sapiens), P07237, UniProt P07237, whole entry, looked up: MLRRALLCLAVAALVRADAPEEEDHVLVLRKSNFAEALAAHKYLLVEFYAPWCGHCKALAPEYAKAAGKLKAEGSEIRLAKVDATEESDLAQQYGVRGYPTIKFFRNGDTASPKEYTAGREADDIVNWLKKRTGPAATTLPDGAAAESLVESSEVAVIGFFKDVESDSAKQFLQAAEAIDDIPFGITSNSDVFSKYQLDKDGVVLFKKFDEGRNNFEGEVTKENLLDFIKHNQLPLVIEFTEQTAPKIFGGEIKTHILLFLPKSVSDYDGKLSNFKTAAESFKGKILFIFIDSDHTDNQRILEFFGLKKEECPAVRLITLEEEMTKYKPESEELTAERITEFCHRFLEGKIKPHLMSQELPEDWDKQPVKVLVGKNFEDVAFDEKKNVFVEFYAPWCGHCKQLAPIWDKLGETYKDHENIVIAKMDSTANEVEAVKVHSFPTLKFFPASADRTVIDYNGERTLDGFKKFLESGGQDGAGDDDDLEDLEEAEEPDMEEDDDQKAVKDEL
Protein disulfide-isomerase A6 (Homo sapiens), Q15084, UniProt Q15084, whole entry, looked up: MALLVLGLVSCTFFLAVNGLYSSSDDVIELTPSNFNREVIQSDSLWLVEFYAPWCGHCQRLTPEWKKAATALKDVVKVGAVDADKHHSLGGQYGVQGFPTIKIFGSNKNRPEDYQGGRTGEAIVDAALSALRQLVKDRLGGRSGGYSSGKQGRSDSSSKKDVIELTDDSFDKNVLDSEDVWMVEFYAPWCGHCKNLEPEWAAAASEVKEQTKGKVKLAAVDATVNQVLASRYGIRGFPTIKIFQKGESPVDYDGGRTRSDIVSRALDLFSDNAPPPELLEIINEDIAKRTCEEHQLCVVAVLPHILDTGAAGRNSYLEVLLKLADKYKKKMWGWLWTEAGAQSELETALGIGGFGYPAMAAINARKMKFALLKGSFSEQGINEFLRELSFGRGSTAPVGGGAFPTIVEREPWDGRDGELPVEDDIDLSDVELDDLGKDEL

# Assay outcomes from PubChem BioAssay.
# Shown are actives, neighbours in structure and some others; about 0.34% of the full set was active somewhere.
# PDI inh: inhibitors of human PDI, primary screen, biochemical, turbidity, single point, plate reader; Protein disulfide-isomerase (Homo sapiens), P07237; PDI insulin aggregation turbidity, A650, 90 min; inhibition, % at 10 µM; hit rate 0.052% among 350,000;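 active = mean inhibition across replicates of 30% or more, whatever share of single replicates reach that level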
# ERp5 block: inhibitors of ERp5-driven insulin aggregation, primary screen, biochemical, turbidity, absorbance 650 nm, single point; 90 min; inhibition, % at 9.99 µM; AID 651711, 2012; hit rate 0.05% among 350,000; Protein disulfide-isomerase A6 (Homo sapiens), Q15084;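 active = mean replicate inhibition above about 25%, with every replicate also reaching it, limit read from the data, passing the limit was not always enough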
# Cneo AK release: Cryptococcus neoformans cell lysis inducers, primary screen, AK release luminescence, single concentration; C. neoformans lysis, adenylate kinase release luminescence, 4 h; normalised: neutral wells 0, clomiphene wells 100; lysis activity, % at 15 µM; hit rate 0.2% among 360,000; AID 651654, 2012;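 active = mean lysis activity across replicates of at least 80%, whatever share of replicates individually reach that level; inactive = mean lysis activity below 80%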
#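 Test system: log-phase Cryptococcus neoformans yeast cells; Quantity: yeast cell density of 5 × 10^6 cells/mL; Buffer or medium: YPD; Doses: single compound concentration per well; Timing: 4 h at 37 °C static, read 1 h later; Measured by: AK luminescence; Read-out basis: lysis from increased AK signal; Control set: Clomiphene as positive control.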
# Yeast UUG start: alters start codon recognition fidelity in yeast. S. cerevisiae UUG-firefly luciferase reporter, luminescence/redox ratio. activity score, % at 18.7 µM. 0.13% of 350,000 active. AID 602363;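 active = replicate mean at a twofold rise or more, about +100% in these data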;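 also: firefly luciferase made from a UUG start codon reports start codon fidelity; reporter light over untreated wells divided by growth signal over untreated wells; some hits fall short of that in this replicate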
# Numbers without * were called inactive; / = not tested or not shown.
Compound,Yeast UUG start,Cneo AK release,ERp5 block,PDI inh
O=C(C[C@H]1C[C@H]2c3cc(NC(=O)NC4CCCCC4)ccc3O[C@H]2[C@H](CO)O1)NCC(F)(F)F,-10.4,6.6,-2.9,/
CC(C)CC#Cc1cnc2c(c1)C(=O)N([C@@H](C)CO)C[C@@H](C)[C@H](CN(C)Cc1cccc(F)c1)O2,19.6,1.5,-4.2,/
CNC[C@H]1Oc2ncc(C#CCC(C)C)cc2C(=O)N([C@H](C)CO)C[C@H]1C,27.5,90.3*,-2.0,/
CC(C)CC#Cc1cnc2c(c1)C(=O)N([C@H](C)CO)C[C@@H](C)[C@@H](CN(C)C(=O)c1ccc3c(c1)OCO3)O2,14.9,88.6*,7.5,/
CC(C)CC#Cc1cnc2c(c1)C(=O)N([C@H](C)CO)C[C@H](C)[C@H](CN(C)Cc1ccccc1C(=O)O)O2,12.4,-14.1,37.4*,/
CC(C)CC#Cc1cnc2c(c1)C(=O)N([C@H](C)CO)C[C@H](C)[C@@H](CN(C)Cc1cccc(F)c1)O2,22.8,87.8*,1.9,/
C=C[C@@H](COC(=O)c1ccc([N+](=O)[O-])cc1)N(Cc1ccc(OC)cc1)S(=O)(=O)c1ccc(Br)cc1,-8.6,-6.0,0.8,/
CC[C@]12c3[nH]c4cc(-c5ccco5)ccc4c3CCN1C(=O)[C@@H](CC(=O)NCc1ccc(OC)c(OC)c1)C[C@@H]2C(=O)N1CCN(C(=O)C2CC2)CC1,0.7,-0.1,0.6,37.0*
C[C@H](CO)N1C[C@H](C)[C@H](CN(C)Cc2cncnc2)Oc2ncc(-c3cccc(C#N)c3)cc2C1=O,-3.3,-1.8,52.3*,/
C[C@H]1CN([C@@H](C)CO)C(=O)c2cc(-c3cccc(C#N)c3)cnc2O[C@@H]1CN(C)Cc1cncnc1,0.7,-1.0,33.8*,/

# A few values from the entries so far.
# Result for `CC(C)CC#Cc1cnc2c(c1)C(=O)N([C@H](C)CO)C[C@H](C)[C@@H](CN(C)Cc1cccc(F)c1)O2` under ERp5 block: 1.9
# Result for `O=C(C[C@H]1C[C@H]2c3cc(NC(=O)NC4CCCCC4)ccc3O[C@H]2[C@H](CO)O1)NCC(F)(F)F` under ERp5 block: -2.9

# Next entries:
Compound,Yeast UUG start,Cneo AK release,ERp5 block,PDI inh
Cc1ccc(S(=O)(=O)N(C)C[C@@H]2Oc3ccc(NC(=O)Nc4c(C)noc4C)cc3C(=O)N([C@@H](C)CO)C[C@H]2C)cc1,7.1,-0.9,1.1,/
CCCC(=O)Nc1ccc2c(c1)C(=O)N(C)C[C@H](OC)[C@H](C)CN(C(=O)c1cccnc1)[C@@H](C)CO2,-1.6,-2.2,5.2,/
CCCC(=O)Nc1ccc2c(c1)C(=O)N(C)C[C@H](OC)[C@@H](C)CN(C(=O)c1cccnc1)[C@@H](C)CO2,7.0,82.4*,-5.0,/
CCC(=O)Nc1ccc2c(c1)OC[C@H](C)N(C(=O)c1ccc(F)cc1)C[C@@H](C)[C@@H](OC)CN(C)C2=O,/,92.0*,5.9,/
Cc1noc(C)c1S(=O)(=O)N(C)C[C@H]1OCCCC[C@@H](C)Oc2ccc(NS(=O)(=O)c3ccccc3)cc2C(=O)N([C@@H](C)CO)C[C@H]1C,9.5,51.1,-0.2,/
C[C@@H]1CCCCO[C@@H](CN(C)S(=O)(=O)c2ccc(F)cc2)[C@@H](C)CN([C@H](C)CO)C(=O)c2cc(NS(=O)(=O)c3cccs3)ccc2O1,26.1,50.0,-7.2,/
CNC[C@H]1Oc2ccc(NC(=O)C3CCCCC3)cc2C(=O)N([C@@H](C)CO)C[C@H]1C,18.0,44.0,-2.4,/
CC(=O)N(C)C[C@@H]1Oc2ncc(/C=C/c3ccccc3)cc2C(=O)N([C@H](C)CO)C[C@@H]1C,-4.8,0.8,0.3,/
CCC(=O)N1[C@H](CN(CC)C(=O)c2cccc(F)c2)[C@H](c2ccccc2)[C@@H]1CO,-0.4,-5.4,-0.4,/
CCC(=O)N1[C@H](CO)[C@H](c2ccccc2)[C@@H]1CN(CC)C(=O)c1cccc(F)c1,18.7,99.2*,1.3,/
COc1ccc(-c2csc(NC(=O)C3CCN(C(=O)c4ccc(F)cc4)CC3)n2)cc1OC,22.6,-6.1,29.0*,0.9
CCC(=O)N(C)C[C@H]1Oc2cc(C#CC(C)(C)O)ccc2S(=O)(=O)N([C@@H](C)CO)C[C@H]1C,-3.1,-1.8,-4.9,/
COc1ccccc1-c1ccc2c(c1)O[C@@H](CN(C)C(=O)c1cccnc1)[C@H](C)CN([C@@H](C)CO)S2(=O)=O,/,83.8*,0.3,/
CCC(=O)N(C)C[C@@H]1Oc2cc(C#CC(C)(C)O)ccc2S(=O)(=O)N([C@H](C)CO)C[C@H]1C,16.2,103.4*,-1.4,/
COc1ccccc1-c1ccc2c(c1)O[C@@H](CN(C)C(=O)c1ccncc1)[C@H](C)CN([C@@H](C)CO)S2(=O)=O,-7.8,-0.9,-0.3,0.2
CCC(=O)N(C)C[C@H]1Oc2cc(C#CC(C)(C)O)ccc2S(=O)(=O)N([C@@H](C)CO)C[C@@H]1C,-1.2,98.4*,-2.6,/
COCC(=O)N(C)C[C@H]1Oc2cc(C#CC(C)(C)O)ccc2S(=O)(=O)N([C@H](C)CO)C[C@H]1C,2.6,0.6,72.8*,/
Cc1ccc(S(=O)(=O)N(C)C[C@H]2Oc3c(NS(=O)(=O)c4ccccc4)cccc3C(=O)N([C@@H](C)CO)C[C@H]2C)cc1,-3.6,-5.7,-12.9,/
C[C@@H]1CN([C@@H](C)CO)C(=O)c2cc(NC(=O)c3ccccc3)ccc2O[C@@H](C)CCCCO[C@H]1CN(C)C(=O)C1CCCCC1,6.6,0.9,8.0,/
C[C@@H]1CN([C@@H](C)CO)S(=O)(=O)c2ccc(C#Cc3cccnc3)cc2O[C@H]1CN(C)C(=O)CN(C)C,-0.5,2.4,54.1*,/
O=C1NC(Cc2ccccc2)c2nc3ccccc3c(=O)n2-c2ncccc21 (stereo unspecified),-1.4,1.6,4.7,0.7
Cc1cc(C)c2c(=O)n3c(nc2c1)C(Cc1ccc(O)cc1)NC(=O)c1cccnc1-3 (stereo unspecified),6.4,-0.6,-1.9,44.1*
O=C1NC(Cc2ccc(O)cc2)c2nc3ccccc3c(=O)n2-c2ncccc21 (stereo unspecified),-10.7,-2.4,0.7,43.3*
Cc1ccc2nc3n(c(=O)c2c1)-c1ncccc1C(=O)NC3Cc1ccc(O)cc1 (stereo unspecified),-13.7,0.8,-5.9,37.5*
Cc1cc(C)c2c(=O)n3c(nc2c1)C(Cc1ccccc1)NC(=O)c1cccnc1-3 (stereo unspecified),-3.4,2.1,-4.9,-1.2
C[C@@H]1CN([C@H](C)CO)C(=O)c2cc(-c3ccccc3F)cnc2O[C@@H]1CN(C)C(=O)c1cnccn1,/,-12.5,-7.9,/
CO[C@H](CN(C)Cc1cc(F)ccc1F)[C@@H](C)CN([C@@H](C)CO)S(=O)(=O)c1ccc(F)cc1,/,91.4*,1.2,/
CO[C@@H](CN(C)Cc1cc(F)ccc1F)[C@H](C)CN([C@@H](C)CO)S(=O)(=O)c1ccc(F)cc1,/,0.1,-0.2,/
O=C(/C=C/c1ccc(O)cc1)c1ccc(O)cc1O,-6.6,-0.8,5.3,41.0*
COc1ccc(S(=O)(=O)N(C)C[C@H]2Oc3c(cccc3N(C)C)C(=O)N([C@@H](C)CO)C[C@H]2C)cc1,/,-1.2,-1.5,/
O=C(C[C@H]1C[C@@H]2c3cc(NC(=O)C4CCC4)ccc3O[C@@H]2[C@H](CO)O1)NCC(F)(F)F,0.9,-7.5,43.0*,/

# Some of these compounds in order of the PDI inh value, lowest first:
canonical_smiles,Yeast UUG start,ERp5 block,PDI inh
Cc1cc(C)c2c(=O)n3c(nc2c1)C(Cc1ccccc1)NC(=O)c1cccnc1-3 (stereo unspecified),-3.4,-4.9,-1.2
O=C(/C=C/c1ccc(O)cc1)c1ccc(O)cc1O,-6.6,5.3,41.0*
O=C1NC(Cc2ccc(O)cc2)c2nc3ccccc3c(=O)n2-c2ncccc21 (stereo unspecified),-10.7,0.7,43.3*
Cc1cc(C)c2c(=O)n3c(nc2c1)C(Cc1ccc(O)cc1)NC(=O)c1cccnc1-3 (stereo unspecified),6.4,-1.9,44.1*
